AlphaSeq binding of Ab-14 light chain variants to a spike HR2 peptide

From the AlphaSeq antibody data of Engelhart et al. 2022 (doi:10.1038/s41597-022-01779-4), copy in the FLAb collection.

Antigen: PDVDLGDISGINAS, a 14-residue peptide of the SARS-CoV-2 spike HR2 region.

The variants keep the heavy chain, the linker and the frameworks of Ab-14 (scFv order VH, three GGGGS repeats, VL).
VH: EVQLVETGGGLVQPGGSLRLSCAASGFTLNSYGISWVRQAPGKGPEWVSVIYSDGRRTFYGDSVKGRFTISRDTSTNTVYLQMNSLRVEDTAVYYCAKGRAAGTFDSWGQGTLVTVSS
VL: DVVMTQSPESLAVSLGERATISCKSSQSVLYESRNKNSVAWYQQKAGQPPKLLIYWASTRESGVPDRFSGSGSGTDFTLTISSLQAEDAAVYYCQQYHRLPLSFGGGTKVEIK

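The starting antibody came from a phage panning campaign against this peptide. AAYL50 was designed without a model: most single CDR substitutions and a random sample of double and triple ones. The assay is AlphaSeq: two haploid yeast populations carry antibody and antigen on their surface. The frequency of each diploid, read from paired DNA barcodes, reflects how well the two displayed proteins bind. Read counts were normalised to the haploid input and turned into Kd by a linear fit to BCL2-family pairs of known affinity, for each replicate. Each pool was mated in three replicate cultures.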

Positions count from residue 1 of the parent VL; S62R puts R in place of S. Affinities are written as log10 Kd with Kd in nM; a lower number is a better binder. Averages over replicates are reported, and they cover detected replicates only. "no signal" means that the variant was in the library but no mating with the target was seen in any replicate; the authors take this as a sign of poor binding, and no number exists. Background: pairings of library AAYL50 with three empty control strains gave a value in 18% of cases (median 4.19, 5th percentile 2.99). Values in that range, when seen in few replicates, are hard to tell from nonspecific mating. The control count says in how many pairings with the empty strains this scFv gave a signal.

changes	mean log10 Kd (nM)	replicates with signal	control signals
S62R/L100A	1.38	3 of 3	2 of 9
A57D/Q96D/Y97K	1.82	3 of 3	1 of 9
N35I/S58M/Q96A	3.43	2 of 3	2 of 9
Q27L/N37Y/H98M	3.18	3 of 3	1 of 9
S26W/Y97D/P101M	4.40	2 of 3	0 of 9
V29K/W56E/S58K	0.24	3 of 3	1 of 9
S33N/Y97C/H98P	3.72	1 of 3	0 of 9
Y31S/K36C/P101N	1.97	3 of 3	0 of 9
S58W/Y97K/S103T	no signal	0 of 3	0 of 9
S28T/R60P/S62H	2.58	3 of 3	5 of 9
N37G/S58M/Q96D	no signal	0 of 3	0 of 9
N37T/S38N/L102S	5.20	1 of 3	1 of 9
N37C/A40R/A57G	no signal	0 of 3	1 of 9
R34Y/S38V/A40N	no signal	0 of 3	1 of 9
S28R/E61R	3.46	1 of 3	2 of 9
Q27Y/R99Y/P101L	0.88	3 of 3	0 of 9
E32M/S33M/N35H	no signal	0 of 3	0 of 9
E32V/A40G/R99Y	3.73	2 of 3	2 of 9
R34P/Q96D/L100H	3.98	1 of 3	0 of 9
R34M/T59A	no signal	0 of 3	1 of 9
S38D/W56R	0.64	3 of 3	1 of 9
S25R/L30Y/H98Y	1.86	3 of 3	1 of 9
S26E/S58H/E61L	1.26	3 of 3	0 of 9
S25F/V39I/S58F	1.07	3 of 3	2 of 9
K24R/S58T/L102Q	0.85	3 of 3	4 of 9
N37Y/S58R/Q96T	3.31	3 of 3	1 of 9
S26N/Q27R/N37P	2.47	3 of 3	1 of 9
Q27N/T59P/E61L	no signal	0 of 3	1 of 9
Y31W/A40P/R60H	no signal	0 of 3	1 of 9
V29D/S62G	0.77	3 of 3	1 of 9
S28T/L100W/P101F	5.13	3 of 3	5 of 9
K24G/Q27S/E61K	3.04	2 of 3	3 of 9
S33N/R34L/A57M	1.09	3 of 3	1 of 9
N35F/K36N	1.25	3 of 3	3 of 9
S25C/K36C/S58A	1.41	3 of 3	0 of 9
K36P/S38C/Y97A	2.52	3 of 3	2 of 9
S38R/A40I	3.92	1 of 3	3 of 9
S33M/Q96H	4.14	2 of 3	3 of 9
Q27C/S33P/V39Y	4.65	1 of 3	1 of 9
W56V/E61L/S62N	no signal	0 of 3	0 of 9

Further variants, results first:

mean log10 Kd (nM)	replicates with signal	control signals	changes
no signal	0 of 3	0 of 9	N35H/A57P/S103G
2.83	1 of 3	2 of 9	K24N/V29Y/T59P
2.61	3 of 3	1 of 9	N37H/L102V
4.80	1 of 3	0 of 9	S28I/K36Q/S58T
1.05	3 of 3	8 of 9	S26E/Y31E/H98Y
3.65	2 of 3	5 of 9	S38T/E61P
no signal	0 of 3	1 of 9	Q95H/L100R
no signal	0 of 3	0 of 9	S38K/W56H/Q95G
no signal	0 of 3	1 of 9	Y31K/A40P/W56T
3.52	1 of 3	0 of 9	K24R/E61S/Q96C
no signal	0 of 3	0 of 9	W56A/S62H/L100G
3.22	2 of 3	4 of 9	S25E/R99S/P101Q
no signal	0 of 3	0 of 9	K24G/V39N/E61Q
0.02	3 of 3	2 of 9	E32Y/W56D/S58K
0.83	3 of 3	3 of 9	V29W/Q95W/R99C
4.52	1 of 3	2 of 9	S38T/H98R/P101W
no signal	0 of 3	2 of 9	S26A/K36Y/P101M
no signal	0 of 3	0 of 9	L30Y/E61I/Q95L
4.26	1 of 3	3 of 9	S33K/N35E/N37R
2.49	1 of 3	0 of 9	K24A/S103K
2.76	2 of 3	1 of 9	S26R/Q27M/T59N
no signal	0 of 3	1 of 9	K24I/S26Y/N35T
2.97	3 of 3	2 of 9	L30R/Q96T/S103W
2.26	3 of 3	5 of 9	T59K/R99A/L102D
0.92	3 of 3	4 of 9	S33P/R34I/S38A
0.25	3 of 3	3 of 9	S25L/Q27C/S62D
1.80	3 of 3	0 of 9	Y31S/S33G/L102W
3.45	3 of 3	3 of 9	K24D/R34E/S62Y
no signal	0 of 3	2 of 9	R60Y/S62N/Q96R
1.72	3 of 3	1 of 9	Q27F/L30K/S33I
1.33	3 of 3	1 of 9	S26A/K36C
3.17	3 of 3	1 of 9	S26G/L30Q/A57R
2.22	3 of 3	5 of 9	N35S/E61A/H98R
no signal	0 of 3	2 of 9	S25K/V29I/N37A
3.27	3 of 3	7 of 9	E32L/R99V/L100H
0.73	3 of 3	3 of 9	Y31L/S33D/R34Q
no signal	0 of 3	1 of 9	Y31R/S38G/L100P
3.15	3 of 3	4 of 9	K24D/R99L/P101K
0.88	3 of 3	1 of 9	S25I/Q27L/R34Y
no signal	0 of 3	2 of 9	S25G/V39D/A57H

Excerpt, the first 9 entries:

changes	mean log10 Kd (nM)	replicates with signal	control signals
S62R/L100A	1.38	3 of 3	2 of 9
A57D/Q96D/Y97K	1.82	3 of 3	1 of 9
N35I/S58M/Q96A	3.43	2 of 3	2 of 9
Q27L/N37Y/H98M	3.18	3 of 3	1 of 9
S26W/Y97D/P101M	4.40	2 of 3	0 of 9
V29K/W56E/S58K	0.24	3 of 3	1 of 9
S33N/Y97C/H98P	3.72	1 of 3	0 of 9
Y31S/K36C/P101N	1.97	3 of 3	0 of 9
S58W/Y97K/S103T	no signal	0 of 3	0 of 9